Laboratory results: patent publication US20090005437A1, “Alpha-Ketoglutarates and Their Use as Therapeutic Agents” (priority 2004, published 2009)

Experiments:
[1] = tested on: PHD (HIFα prolyl hydroxylase); assay: In vitro PHD activity (hydroxylation of in vitro-translated HA-ODDD by cell extracts, gel shift on SDS-PAGE); format: biochemical, human
[2] = tested on: cells with dysfunctional SDH activity; conditions: cells grown continuously with TTFA, medium with excess pyruvate and uridine
HCT116 cells = conditions: spheroids, 1 mM, 24 hours
HEK293 cells = assay: Measurement of intracellular α-ketoglutarate (glutamate dehydrogenase assay); format: cell-based, human; conditions: 1 mM, 5 hours, 48 hours after transfection

| SMILES | Hydroxylation of HA-ODD [1] | Cell death (viability by MTT) in cells with dysfunctional SDH activity [2] | Growth of spheres in three dimensions (HCT116 cells) | Rise in intracellular α-ketoglutarate in SDH-deficient (Di3) cells relative to rise in scrambled control-transfected cells (HEK293 cells) |
| --- | --- | --- | --- | --- |
| O=C(O)CCC(=O)C(=O)O [free α-ketoglutaric acid, 2-Oxo-pentanedioic acid, reference compound] | near maximal hydroxylation of HA-ODD |  |  |  |
| O=C(O)CCC(=O)C(=O)OCc1cccc(C(F)(F)F)c1 [TFMB-α-ketoglutarate, 2-Oxopentanedioic acid 1-(3-trifluoromethyl-benzyl)ester] |  | significant death | inability of cells to sustain growth in three dimensions |  |
| CCCCCCCCOC(=O)C(=O)CCC(=O)O [octyl-α-ketoglutarate, 2-Oxo-pentanedioic acid 1-octyl ester] |  | significant death | inability of cells to sustain growth in three dimensions | two-fold rise |
